## Yeast mating assay B: variants of the scFv Ab-14

Target peptide (SARS-CoV-2 spike, HR2 region): PDVDLGDISGINAS

Each scFv is VH, a (GGGGS)3 linker, VL, as in the parent Ab-14, and differs from it in the CDRs of the heavy chain only.
VH: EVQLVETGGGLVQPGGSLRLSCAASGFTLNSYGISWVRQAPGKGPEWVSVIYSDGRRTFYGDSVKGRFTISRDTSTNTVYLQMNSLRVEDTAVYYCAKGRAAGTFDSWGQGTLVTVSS
VL: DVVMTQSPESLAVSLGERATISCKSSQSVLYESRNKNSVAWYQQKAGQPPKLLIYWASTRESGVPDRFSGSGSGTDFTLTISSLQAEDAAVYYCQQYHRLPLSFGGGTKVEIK

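The starting antibody came from a phage panning campaign against this peptide. These sequences belong to a second round, designed from the earlier measurements on random variants of the parent. Group labels follow the data file (Ctrl: baseline library sampled from a position-specific scoring matrix, with some repeated check sequences; En: ensemble of fine-tuned language models; HC: hill climbing; Gen: genetic algorithm; Gibbs: Gibbs sampling; a sequence that several methods proposed may carry one label only). In AlphaSeq, yeast of one mating type display the scFv and yeast of the other type display the target. The frequency of each diploid, read from paired DNA barcodes, reflects how well the two displayed proteins bind. Read counts were normalised to the haploid input and turned into Kd by a linear fit to BCL2-family pairs of known affinity, for each replicate. There are six technical replicates.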

Variants are written as CDR1, CDR2 and CDR3 of the heavy chain (limits as in the source). Parent: GFTLNSYGIS, VIYSDGRRTFYGDSVK, GRAAGTFDS.
Variants here have more than six changes.
Values are apparent Kd, the geometric mean of the replicates that gave a signal; lower means stronger binding.
An entry "nd" has no value in the source: the pair was not observed among the diploids in any replicate. This suggests poor binding but is not conclusive.
The list is sorted by this average, lowest first, undetected variants last.
The authors' rule: three or more of the six replicates give a measured affinity, fewer mean a poor binder.

CDR-H1,CDR-H2,CDR-H3,group,apparent Kd,seen in
GFDLDEYGIS,VIYADGMRTFYIDSVK,GETAGTFDV,En_HC,140 pM,5 of 6
GFDLNEYGIS,VIYADGRRTFYADSVK,GNVAGTFDM,En_Gen,160 pM,6 of 6
GFDLNEYGIS,VIYADGMRTAYSDSVK,GTVAGTFDV,En_Gen,170 pM,6 of 6
GFNLNEYGIS,VIYADGRRTFYADSVK,GQVAGTFDV,En_HC,190 pM,6 of 6
GFDLNEYGIS,VIYADGKRTAYIDSVK,GHAAGTFDS,En_HC,190 pM,6 of 6
GFDLNEYGIS,VIYADGLRTAYVDSVK,GNQAGTFDV,En_Gen,190 pM,6 of 6
GFDLNEYGIS,VIYADGQRTFYADSVK,GQLAGTFDL,En_HC,210 pM,6 of 6
GFDLNEYGIS,VIYADGRRTSYADSVK,GQLAGTFDS,En_HC,210 pM,6 of 6
GFDLDEYGIS,VIYADGRRTFYIDSVK,GETAGTFDQ,En_HC,210 pM,6 of 6
GFDLEDYGIS,VIYADGRRTFYADSVK,GNVAGTFDE,En_HC,210 pM,6 of 6
GFDLNEYGIS,VIYADGTRTAYADSVK,GENAGTFDI,En_Gen,270 pM,6 of 6
GFDLNEYGIS,VIYADGMRTFYTDSVK,GELAGTFDS,En_HC,270 pM,6 of 6
GFDLESYGIS,VIYADGRRTFYADKVK,GQNAGTFDI,En_HC,310 pM,6 of 6
GFDLNEYGIS,VIYADGMRTYYIDSVK,GEQAGTFDL,En_HC,320 pM,6 of 6
GFDLNEYGIS,VIYADGMRTAYADSVK,GNQAGTFDT,En_Gen,340 pM,6 of 6
GFDLNEYGIS,VIYADGQRTAYADSVK,GQAAGTFDS,En_HC,400 pM,6 of 6
GFDLNEYGIS,VIYADGRRTYYSDSVK,GEQAGTFDV,En_HC,410 pM,6 of 6
GFNLNEYGIS,VIYADGMRTFYADSVK,GEHAGTFDI,En_HC,410 pM,6 of 6
GFELDEYGIS,VIYADGRRTFYQDSVK,GNVAGTFDS,En_HC,430 pM,6 of 6
GFDINEYGIS,VIYADGRRTAYADSVK,GETAGTFDV,En_HC,470 pM,6 of 6
GFDLNEYGIS,VIYADGRRTAYADNVK,GNVAGTFDQ,En_Gen,470 pM,6 of 6
GFDLNEYGIS,VIYADGVRTAYADDVK,GENAGTFDI,En_Gen,470 pM,6 of 6
GFDLNEYGIS,VIYADGRRTQYIDSVK,GNNAGTFDV,En_HC,500 pM,6 of 6
GFDLNEYGIS,VIYADGIRTFYTDSVK,GEVAGTFDS,En_HC,530 pM,6 of 6
GFDLNEYGIS,VIYADGSRTVYADSVK,GEAAGTFDQ,En_HC,530 pM,6 of 6
GFDLNEYGIS,VIYADGRRTSYADSVK,GTAAGTFDQ,En_HC,550 pM,6 of 6
GFDLNEYGIS,VIYADGMRTAYADSVK,GKVAGTFDV,En_Gen,560 pM,5 of 6
GFDLNEYGIS,VIYADGRRTFYADSVK,GEVAGTFVT,En_HC,620 pM,5 of 6
GFDLEEYGIS,VIYADGMRTFYSDSVK,GENAGTFDV,En_HC,800 pM,6 of 6
GFDLEDYGIS,VIYADGMRTAYADSVK,GEVAGTFDT,En_Gen,850 pM,6 of 6
GFDLNEYGIS,VIYADGRRTAYADNVK,GEVAGTFIV,En_HC,950 pM,6 of 6
GFDLDEYGIS,VIYADGQRTAYTDSVK,GETAGTFDV,En_Gen,950 pM,6 of 6
GFDLDEYGIS,VIYADGMRTAYTDSVK,GNQAGTFDL,En_Gen,1.1 nM,6 of 6
GFDLNEYGIS,VIYADGRRTAYADSVK,GENAGTFDL,En_Gen,1.3 nM,5 of 6
GFDLNEYGIS,VIYADGVRTAYIDSVK,GEVAGTFDS,En_HC,1.9 nM,6 of 6
GFDLNEYGIS,VIYADGMRTAYTDSVK,GENAGTFDT,En_Gen,2.1 nM,6 of 6
GFDLDEYGIS,VIYADGSRTAYADSVK,GEVAGTFDL,En_Gen,2.9 nM,6 of 6
EFDLNEYGIS,VIYADGKRTFYADHVK,GVNAGVFDT,En_Gibbs,3.6 nM,6 of 6
GFDLNEYGIS,VIYADGMRTAYVDKVK,GNNAGTFDV,En_Gen,6.4 nM,6 of 6
GFDLNEYGIS,VIYADGRRTFYADSVK,GNVAGTFFT,En_HC,34 nM,6 of 6
GFDLNEYGIS,VIYADGMRTAYVDDVK,GENAGTFDQ,En_Gen,49 nM,3 of 6
GPGLQEYGIS,VIYADGIRSAYSDDVK,GQNAGHFLV,En_Gibbs,50 nM,1 of 6
GFDLEKYGIS,VIYADGKRVAYTDDVK,GGTGGMLMS,En_Gibbs,440 nM,1 of 6
GKDLEEYGIS,VIYADGMRTQYINAVK,GIAGDQFDV,En_Gibbs,nd,0 of 6
GESLDEYGIS,VIYADGQRVQYSNNVK,GLMFGVFDM,En_Gibbs,nd,0 of 6
GFDIEEYGIS,VIYADGRRVSYSNKVK,GQSGMIGNY,En_Gibbs,nd,0 of 6
GFNLEEYGIS,VIYADGSRSSYIEDVK,GHWNADFIV,En_Gibbs,nd,0 of 6
GFDLEDYGIS,VIYADGKRSFVSNNVK,GQQGNAFSM,En_Gibbs,nd,0 of 6
GDNLEEYGIS,VIYADGRRTSYASSVK,GAIRGTFDS,En_Gibbs,nd,0 of 6
GFDLNEYGIS,VIYADGQRTFYIDNVK,GQLNVVVNA,En_Gibbs,nd,0 of 6
LFSLNSYGIS,VIYSDGRRTFYIDSVR,IRAAVTWDS,Ctrl,nd,0 of 6
GFDLQEYGIS,VIYADGKRSMYSNDVK,GELGLGELI,En_Gibbs,nd,0 of 6
GKNLDEYGIS,VIYADGVRSHYAESVK,GQHGTFGVA,En_Gibbs,nd,0 of 6
GFDLAEYGVS,VIYADGKRTEYSDHVK,GENAGFNDL,En_Gibbs,nd,0 of 6
GKSLDEYGIS,VIYADGLRSVYANSVK,GQFDDAMDL,En_Gibbs,nd,0 of 6
GFDIEEYGIS,VIYADGKRAAYADAVK,GENMDIMTD,En_Gibbs,nd,0 of 6

A sequence measured in both rounds can read differently, since the two assays cover different ranges.
Nonspecific signal, from three strains lacking the peptide, appeared in 1% of pairings of all heavy chain designs, centred on 120 nM (5% of these signals below 7.0 nM); values are not corrected for it.

Reference: Li et al. 2023, doi:10.1038/s41467-023-39022-2. File: FLAb, binding data.